These results are taken from ChEMBL document CHEMBL4270587, “Difuran-substituted quinoxalines as a novel class of PI3Kα H1047R mutant inhibitors: Synthesis, biological evaluation and structure-activity relationship” (Eur J Med Chem, 2018).

Test [1] is filed under the species Homo sapiens. As to the kind of experiment: Selectivity index, ratio of EC50 for inhibition of recombinant full length PI3K p85alpha/p110alpha H1047R mutant (unknown origin) expressed in baculovirus infected sf9 cells to EC50 for inhibition of recombinant full length PI3K p110alpha/p85alpha (unknown origin) expressed in baculovirus infected sf9 cells.
The species named for test [2] is Homo sapiens. As to the kind of experiment: Selectivity ratio of EC50 for inhibition of PI3K-delta (unknown origin) to EC50 for inhibition of recombinant full length PI3K p110alpha/p85alpha (unknown origin) expressed in baculovirus infected sf9 cells.
Test [3] is filed under the species Homo sapiens. As to the kind of experiment: Selectivity ratio of EC50 for inhibition of PI3K-gamma (unknown origin) to EC50 for inhibition of recombinant full length PI3K p110alpha/p85alpha (unknown origin) expressed in baculovirus infected sf9 cells.
The species entered for test [4] is Homo sapiens. As to the kind of experiment: Selectivity ratio of EC50 for inhibition of PI3K-beta (unknown origin) to EC50 for inhibition of recombinant full length PI3K p110alpha/p85alpha (unknown origin) expressed in baculovirus infected sf9 cells.

For `Clc1cc(Cl)c2nc(-c3ccco3)c(-c3ccco3)nc2c1`, the Ratio EC50 in the test filed under Homo sapiens [1] was determined as 1.39. Consider `c1ccc(-c2ccc3nc(-c4ccco4)c(-c4ccco4)nc3c2)cc1`, for which the Ratio EC50 in the test filed under Homo sapiens [1] is 3.83.

With `FC(F)(F)c1ccccc1-c1cc2nc(-c3ccco3)c(-c3ccco3)nc2cc1Br`, the Ratio EC50 in the test listed under Homo sapiens [1] stood at 1.74. With `Fc1ccccc1-c1cc2nc(-c3ccco3)c(-c3ccco3)nc2cc1Br`, the Ratio EC50 was greater than 100 in the test listed under Homo sapiens [2], greater than 100 in the test listed under Homo sapiens [3], 1.47 in the test listed under Homo sapiens [1] and greater than 40 in the test filed under Homo sapiens [4]. In the case of `FC(F)(F)c1ccccc1-c1ccc2nc(-c3ccco3)c(-c3ccco3)nc2c1`, the Ratio EC50 in the test listed under Homo sapiens [1] was determined as 0.92. For the compound `Brc1ccc2nc(-c3ccco3)c(-c3ccco3)nc2c1`, the Ratio EC50 in the test listed under Homo sapiens [1] was found to be 1.21.
